Among the data in patent publication US9944618B2, “Inhibiting neurotransmitter reuptake” (Mayo Foundation for Medical Education and Research, priority 2013, dated 2018) are IC50 values, retold here.

The chains behind the UniProt entries cited, without tags or fusion partners. Where a name states a change or a piece, a line headed by the entry shows the natural chain unless it says otherwise.
UniProt Q12809: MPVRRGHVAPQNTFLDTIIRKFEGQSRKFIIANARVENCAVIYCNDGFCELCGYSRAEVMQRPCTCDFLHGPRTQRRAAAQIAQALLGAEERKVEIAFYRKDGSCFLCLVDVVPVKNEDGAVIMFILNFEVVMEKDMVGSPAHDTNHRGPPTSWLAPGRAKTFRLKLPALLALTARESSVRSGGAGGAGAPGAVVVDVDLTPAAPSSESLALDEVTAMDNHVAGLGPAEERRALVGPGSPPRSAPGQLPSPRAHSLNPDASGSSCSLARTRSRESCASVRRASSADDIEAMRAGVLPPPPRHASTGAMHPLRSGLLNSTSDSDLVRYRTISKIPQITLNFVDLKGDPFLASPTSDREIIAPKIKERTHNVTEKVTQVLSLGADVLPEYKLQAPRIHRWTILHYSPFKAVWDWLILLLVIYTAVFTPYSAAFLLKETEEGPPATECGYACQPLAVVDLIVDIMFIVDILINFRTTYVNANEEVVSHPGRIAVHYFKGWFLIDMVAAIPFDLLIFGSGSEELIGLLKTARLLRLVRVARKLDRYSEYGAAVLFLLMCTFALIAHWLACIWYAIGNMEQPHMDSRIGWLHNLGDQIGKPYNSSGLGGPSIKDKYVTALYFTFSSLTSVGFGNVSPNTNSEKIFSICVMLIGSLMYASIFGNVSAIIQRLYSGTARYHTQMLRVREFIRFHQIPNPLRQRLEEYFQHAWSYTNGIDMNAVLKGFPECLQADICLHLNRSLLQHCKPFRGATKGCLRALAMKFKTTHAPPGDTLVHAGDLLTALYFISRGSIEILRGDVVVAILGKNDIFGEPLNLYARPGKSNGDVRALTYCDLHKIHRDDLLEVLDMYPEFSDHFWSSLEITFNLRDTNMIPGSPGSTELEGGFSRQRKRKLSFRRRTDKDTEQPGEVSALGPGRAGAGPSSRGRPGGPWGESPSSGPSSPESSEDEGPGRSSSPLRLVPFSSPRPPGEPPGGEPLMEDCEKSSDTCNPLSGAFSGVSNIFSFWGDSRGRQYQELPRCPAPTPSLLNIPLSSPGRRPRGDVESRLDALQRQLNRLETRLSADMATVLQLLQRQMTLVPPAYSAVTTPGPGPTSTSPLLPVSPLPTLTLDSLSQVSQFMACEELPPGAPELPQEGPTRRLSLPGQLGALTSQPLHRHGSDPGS

In this series the target is hERG (Homo sapiens (Human), UniProt Q12809). Nature of the series: Human ERG (hERG) assay, hERG currents in hERG-expressing CHO cells. It counts as cell-based. The following applies: selected reference compounds. (In general: The hERG channel carries a current that helps repolarise heart muscle cells.)

For `Fc1ccc(C(OCCN2CCN(CCCc3ccccc3)CC2)c2ccc(F)cc2)cc1` [compound 175], the half-maximal inhibitory concentration (IC50) (as a rule, the concentration that gives 50% inhibition) was 470 nM.
